{"sequences": {"note": "The chains behind the UniProt entries cited, without tags or fusion partners.", "UniProt P35372, whole entry, looked up": "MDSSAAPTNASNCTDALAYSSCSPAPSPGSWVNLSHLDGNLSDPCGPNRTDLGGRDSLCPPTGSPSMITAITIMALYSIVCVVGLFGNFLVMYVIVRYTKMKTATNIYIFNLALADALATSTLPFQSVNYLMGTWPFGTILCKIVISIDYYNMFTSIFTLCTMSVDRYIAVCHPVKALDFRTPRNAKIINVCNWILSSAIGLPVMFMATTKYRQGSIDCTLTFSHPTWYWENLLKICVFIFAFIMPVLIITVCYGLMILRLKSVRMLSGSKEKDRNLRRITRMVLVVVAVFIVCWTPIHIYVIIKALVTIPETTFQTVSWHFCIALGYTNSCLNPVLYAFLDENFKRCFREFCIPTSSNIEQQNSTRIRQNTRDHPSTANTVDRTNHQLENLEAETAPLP"}, "source": "paper doi:10.1101/2023.06.19.545627v1", "about": "“Pharmacokinetic profile of the synthetic mu-opioid receptor agonist [Lys7]Dermorphin-IRDye®800CW and its feasibility as a biomarker for opioid use disorder” (bioRxiv, 2023)", "target": "T1, mu-opioid receptor (Homo sapiens, UniProt P35372)", "T1 construct": "host or cells: CHO-K1", "format": "binding", "conditions": "read-out: IC-50 of competitor against DRM-800", "data": [{"substance": "[Lys7]Dermorphin", "values": [{"measurement": "IC50", "result": 40, "unit": "nM"}]}]}
